# From patent US20260048027A1
# Amino acid sequences for entries named in this document (tags omitted).
# UniProt P31639, whole entry: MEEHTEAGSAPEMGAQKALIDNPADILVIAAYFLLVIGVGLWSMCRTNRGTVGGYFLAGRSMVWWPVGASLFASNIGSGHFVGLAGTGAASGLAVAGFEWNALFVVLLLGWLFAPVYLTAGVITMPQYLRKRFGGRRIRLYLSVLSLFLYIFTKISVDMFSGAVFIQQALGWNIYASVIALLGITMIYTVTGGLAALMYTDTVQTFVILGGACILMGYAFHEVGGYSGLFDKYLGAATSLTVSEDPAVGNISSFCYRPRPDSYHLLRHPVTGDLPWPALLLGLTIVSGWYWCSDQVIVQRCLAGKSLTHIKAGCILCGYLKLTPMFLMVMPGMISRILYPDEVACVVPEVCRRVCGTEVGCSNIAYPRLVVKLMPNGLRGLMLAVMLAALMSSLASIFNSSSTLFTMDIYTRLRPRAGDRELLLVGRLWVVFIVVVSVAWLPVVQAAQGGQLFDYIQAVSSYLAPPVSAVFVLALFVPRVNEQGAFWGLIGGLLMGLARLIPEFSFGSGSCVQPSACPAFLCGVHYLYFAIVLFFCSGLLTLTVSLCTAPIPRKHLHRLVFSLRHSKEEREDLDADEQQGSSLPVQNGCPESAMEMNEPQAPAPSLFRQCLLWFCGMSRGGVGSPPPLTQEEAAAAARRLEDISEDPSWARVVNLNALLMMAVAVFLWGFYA
# Target: SGLT2 (Homo sapiens, UniProt P31639)
# Conditions: comparison of SGLT2 and SGLT1 transfected CHO-K1 cells
compound,measurement,value
COc1cc(O)c(C(=O)CCc2ccc(O)cc2)c(OC2OC(CO)C(O)C(O)C2O)c1 (stereo not shown),potency on SGLT2 versus SGLT1,more potent on SGLT2 than on SGLT1
